These results are taken from PubChem BioAssay AID602247 (The Scripps Research Institute Molecular Screening Center, 2012).

The entries are a selection whose mix differs from that of the whole data set. Activity calls are given as the source filed them.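 The calls were made as follows: active = activation above the run cutoff, the mean activation of all test compounds plus 3 SD (cut at about 40% in these data); inactive = the rest.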

A short description of this assay: ATP EC20 calcium response enhancers, parental CHO-K1 – cell-based, Fluo-8 calcium fluorescence, full deck, 1536-well, counter-screen for M1 PAM project, primary screen (AID 602247).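 Also: peak over basal fluorescence ratio in a 140 s read after ATP addition.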 To be noted: parental CHO-K1, ATP EC20, Fluo-8 calcium fluorescence; at 3 µM; active compounds read high; 0% at ATP EC20, 100% at ATP max. For orientation: A counterscreen serves to expose hits that act by an unwanted route or on another target.
In the case of `c1cc(-c2nn[nH]n2)ccc1-c1nn[nH]n1`, the activation was inactive: 5.71%.
For `CC1CCN(C(=O)Oc2c(Cl)cc(Cl)c3cccnc23)CC1`, the activation is inactive: 10.7%.
Next, `CC(C)=N/N=C(\N)N[N+](=O)[O-]`: inactive: 16.4%; `CC(C)c1nc(Nc2ccccc2)n(P(=O)(N(C)C)N(C)C)n1`: inactive: -10.7%.
Next, `CN(C)C(=O)OCCc1n(C)cc[n+]1C`: inactive: 17.7%; `O=P1(N(CCCl)CCCl)OCCCS1` (stereo not given): inactive: 15.7%; `O=C(Nc1cc([As](=O)(O)O)ccc1O)c1ccccc1`: inactive: 7.53%.
Next, `O=[N+]([O-])c1ncn(CCn2ncnc2[N+](=O)[O-])n1`: inactive: 6.13%; `CC(C)(C)C(=O)NC(Sc1ccncn1)C(Cl)(Cl)Cl` (stereo not given): inactive: -5.67%; `C/C=C1/C[C@@H](C)[C@](O)(CO)C(=O)OCC2=CCN3CC[C@@H](OC1=O)[C@@H]23`: inactive: 2.33%.
In the case of `O=C(O)CNc1ccc([As](=O)(O)O)cc1`, the activation is inactive: -22.6%.
Next, `O=[N+]([O-])c1cccc(NC2=NCC(CBr)S2)c1` (stereo not given): inactive: 9.24%; `COC(=O)C1(C)COP(=O)(Nc2ccccc2)OC1` (stereo not given): inactive: 9.37%.
Next, `CN(C)P(=O)(N(C)C)n1c(Nc2ccccc2)nnc1-c1ccccc1`: inactive: 11.2%; `O=P(Nc1nc2ccc(Cl)cc2s1)(c1ccccc1)c1ccccc1`: inactive: -9.78%; `O=C(O)c1ccccc1[As](=O)(O)O`: inactive: 3.66%.
In the case of `CC(=O)Nc1ccc([As](=O)(O)O)cc1`, the activation is inactive: -15.2%.
Next, `CC(=O)O[C@]1(C)C(=O)OC/C2=C/CN(C)CCC(OC(=O)[C@@](O)(C(C)O)C[C@H]1C)C2=O` (stereo not given in full): inactive: 2.3%.
`CCCC1OP(N)(=O)OCC1CC` (stereo not given): the activation is inactive: 6.69%.
Next, `CCOP(=O)(Nc1ccccc1)OCC`: inactive: 5.92%; `Cc1cc(SC(NC(=O)c2ccc(F)cc2)C(Cl)(Cl)Cl)ncn1` (stereo not given): inactive: -8.06%; `CN(C(=O)Cc1ccc(Cl)c(Cl)c1)[C@H]1CCCC[C@@H]1N1CCCC1`: inactive: 7.37%.
Regarding `Cc1ccc(NP(=O)(Oc2ccccc2F)Oc2ccccc2F)nc1`, the activation is inactive: 1.27%.
Next, `Nc1cccc2ccc([As](=O)(O)O)cc12`: inactive: -1.79%; `CCN(N=Nc1nonc1N)c1nonc1N`: inactive: 21.5%.
Next, `CN(C(=O)Cc1ccc(Cl)c(Cl)c1)[C@H]1CCCC[C@H]1N1CCCC1`: inactive: 13.5%; `Cc1ccc(N/C(=N/P(=O)(N2CCOCC2)N2CCOCC2)N2CCOCC2)cc1`: inactive: -23.1%.
Next, `NC(=O)c1cc([N+](=O)[O-])cc([N+](=O)[O-])c1N`: inactive: 14.4%; `Clc1ccc(Cl)c(NC2=NCC(CBr)S2)c1` (stereo not given): inactive: 14.4%.
As to `CN1CCCC(OC(=O)C(c2ccccc2)c2ccccc2)C1` (stereo not given), the activation was inactive: -1.82%.
Next, `CC(C)[C@H]1C(=O)O[C@@H]2CCN3CC=C(COC(=O)[C@](C)(O)[C@]1(C)O)[C@H]23`: inactive: 6.57%.
Next, `COc1ccccc1OP(=O)(Nc1ccc(C)cn1)Oc1ccccc1OC`: inactive: -16%.
Turning to `Cc1ccc(OP(=O)(Nc2nccs2)Oc2ccc(C)cc2)cc1`, the activation was inactive: 23.9%.
Next, `Oc1ccccc1CNc1ccccn1`: inactive: 17.9%.
Next, `O=C(NC(Sc1ccncn1)C(Cl)(Cl)Cl)c1ccccc1` (stereo not given): inactive: 21%; `CC(C)CC(=O)NC(Sc1ccc(Cl)cc1)C(Cl)(Cl)Cl` (stereo not given): inactive: 3.69%; `Nc1cc(N)c2nonc2c1[N+](=O)[O-]`: inactive: 3.33%.
Regarding `O=[N+]([O-])C1C(O)C(O)C([N+](=O)[O-])C(O)C1O` (stereo not given), the activation was inactive: 23.1%.
`O=P1(Nc2nc3ccc(Cl)cc3s2)COc2ccccc2O1` (stereo not given): the activation was inactive: 13.5%.
As for `CCOc1ccc(C2=NCC(CBr)S2)cc1` (stereo not given), the activation was inactive: 1.52%.
Next, `CC(C)(C)C(=O)NC(Sc1ccccc1)C(Cl)(Cl)Cl` (stereo not given): inactive: 0.01%.
Next, `CCc1cc(O)c([N+](=O)[O-])c(C)c1[N+](=O)[O-]`: inactive: 18.9%; `CCN(CC)CCOC(=O)C(O)(c1ccccc1)c1ccccc1`: inactive: -1.94%.
Next, `Cc1ccccc1CN(C)C(=O)COC(=O)C(O)(c1ccccc1)c1ccccc1`: inactive: -14%.
Turning to `C[C@@H]1C=CCP(=O)(Oc2ccccc2)O1` (stereo not given in full), the activation was inactive: 14.6%.
Next, `C[C@H]1OP(=O)(Oc2ccccc2)C[C@@H]2O[C@@H]21` (stereo not given in full): inactive: -9.48%; `N#C/C(=C\c1ccc(N(CCBr)CCBr)cc1)C(N)=O`: inactive: 19.9%.
Next, `CC(=O)c1ccc(N2CC2c2ccncc2)cc1` (stereo not given): inactive: -1%; `CC1C(=O)OC2CCN3CC=C(COC(=O)C(C)(O)C1(C)O)C23` (stereo not given): inactive: -4.13%; `COC(=O)C1(C)COP(=O)(NCc2ccccc2)OC1` (stereo not given): inactive: 7.3%.
`CC(=O)Nc1ccc([As](=O)(O)O)c(O)c1`: the activation is inactive: 19%.
Next, `CC(=O)Nc1ccc(Oc2c([N+](=O)[O-])cc([N+](=O)[O-])cc2[N+](=O)[O-])cc1`: inactive: 11.1%; `c1ccc(-c2nn[nH]n2)c(-c2nn[nH]n2)c1`: inactive: 20.9%; `Cc1ccc(NP(=O)(Oc2cccc(C)c2)Oc2cccc(C)c2)nc1`: inactive: 8.47%.
Next, `C=C1C(=O)OC2CCN3CC=C(COC(=O)C(C)(O)C4(CO4)C1C)C23` (stereo not given): inactive: 8.19%.
Next, `O=C(NC1CCS(=O)(=O)C1)NP(=S)(Oc1ccccc1)Oc1ccccc1` (stereo not given): inactive: -13.9%.
Turning to `CCNC(=S)/N=C(\N)N[N+](=O)[O-]`, the activation is inactive: 6.42%.
Next, `CC1C(=O)OC2CCN3CC4OC4(COC(=O)C(C)(O)C1(C)O)C23` (stereo not given): inactive: 14.8%.
Next, `O=P1(N(CCCl)CCCl)OCCC2CCCCN21` (stereo not given): inactive: 7.5%; `O=C(OC1CN2CCC1CC2)c1ccccc1` (stereo not given): inactive: 13.1%; `Clc1ccc(N2CCN(Cc3c[nH]c4ncccc34)CC2)cc1`: inactive: 16.3%.
Next, `CCC(=O)N1C2C3N(C(=O)CC)C1C1N(C(=O)CC)C(C(N1C(=O)CC)N3C(=O)CC)N2C(=O)CC`: inactive: 11.9%; `COC(=O)c1cc2c(s1)N=C(c1ccccc1)N(C)P2(=O)N1CCOCC1` (stereo not given): inactive: 8.13%; `CC(=O)NC(SC(=S)N(CC(C)C)CC(C)C)C(Cl)(Cl)Cl` (stereo not given): inactive: 2.12%.
Regarding `Cc1ccc(OP(=O)(Nc2ccccn2)Oc2ccc(C)cc2)cc1`, the activation is inactive: 17.6%.
